According to PubChem BioAssay (Tox21):
Only a part is listed here, and it is no random draw. Inconclusive results are not listed. Entries that show only a call come without a potency. Where a structure was tested more than once in an assay, its records may differ in their call. Active and inactive are the calls of the source. Calls follow the shape of the full dose curve.

Amino acid sequences for entries named in this document (tags omitted). A change or cut given only in a name is not applied to a line headed by its entry.
UniProt P22303: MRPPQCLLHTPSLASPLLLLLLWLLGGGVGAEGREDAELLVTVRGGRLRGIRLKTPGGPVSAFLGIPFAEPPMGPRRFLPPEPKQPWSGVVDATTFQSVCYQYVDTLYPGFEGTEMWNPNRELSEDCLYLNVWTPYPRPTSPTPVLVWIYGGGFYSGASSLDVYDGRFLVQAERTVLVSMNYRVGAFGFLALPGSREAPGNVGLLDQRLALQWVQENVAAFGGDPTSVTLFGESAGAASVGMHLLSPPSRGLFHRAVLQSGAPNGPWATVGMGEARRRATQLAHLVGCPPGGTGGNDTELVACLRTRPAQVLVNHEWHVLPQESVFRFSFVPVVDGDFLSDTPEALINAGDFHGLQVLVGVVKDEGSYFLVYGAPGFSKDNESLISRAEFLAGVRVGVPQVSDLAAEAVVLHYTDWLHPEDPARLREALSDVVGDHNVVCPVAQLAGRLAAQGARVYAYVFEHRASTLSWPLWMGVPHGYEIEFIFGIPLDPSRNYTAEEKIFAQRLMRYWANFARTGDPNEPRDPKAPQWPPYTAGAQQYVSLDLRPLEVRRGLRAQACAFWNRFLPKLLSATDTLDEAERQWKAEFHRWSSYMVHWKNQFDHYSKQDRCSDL

Each compound was assayed against Acetylcholinesterase (Homo sapiens) (UniProt P22303) (assay: Acetylcholinesterase (AChE) small molecule antagonists: fluorescence cell-based qHTS assay (AID 1347398; also: nearly all actives have a fitted effect of over 50% in size)). Conditions: SH-SY5Y cells; Potency: AChE activity; series mostly up to 115 µM.
Description: National Center for Advancing Translational Sciences [NCATS]
Division of Preclinical Innovation [DPI]
U.S. Environmental Protection Agency [EPA]
National Institutes of Environmental Health Sciences [NIEHS]
National Toxicology Program [NTP]
U.S. Food and Drug Administration [FDA]
Acetylcholinesterase (AChE) is the primary cholinesterase in the body that hydrolyzes a key neurotransmitter, acetylcholine. Inhibition of AChE activity can lead to neurotoxicity. Known inhibitors of AChE include organophosphorous pesticides (OP), chemical warfare agents, drugs, and various phytochemicals.
A homogenous cell-based assay using Amplitetrade mark Fluorimetric Acetylcholinesterase Assay Kit *Green Fluorescence* (AAT Bioquest, Sunnyvale, CA) was used to evaluate the chemicals in the Tox21 10K library that inhibit AChE activity. The assay uses Thiolite Green to quantify the thiocholine produced from the hydrolysis of acetylthiocholine by AChE from the SH-SY5Y cells. AChE can hydrolyze acetylthiocholine to create thiocholine. Thiolite Green is fluorescent when reacting with thiocholine. It has spectral properties similar to those of fluorescein. The fluorescence intensity of Thiolite Green is used to measure AChE activity. Its signal can be easily read by a fluorescence microplate reader at Ex/Em = 490/520 nm.
Tox21 Assay Protocol Summary:
For cell-based AChE assay, 2,000 SH-SY5Y cells in 4 uL/well were dispensed into black, clear-bottom 1536-well plates using a Multidrop Combi (Thermo Scientific) dispenser. The assay plates were incubated overnight at 37 C to allow cells to attach to the wells, followed by the transfer of 23 nL compound or DMSO (vehicle control) by a Pintool station (Wako Automation, CA). The plates were incubated for 30 min at 37 C and 5% CO2, followed by the addition of 4 uL of detection cocktail solution (ThioliteGreen, acetylthiocholine) into each well using Flying Reagent Dispenser (Beckman Coulter, CA) and then following 40 min incubation at room temperature. Fluorescent intensity (Ex/Em = 490/520 nm) was measured using an Envision plate reader (PerkinElmer, MA).
Potency is read from the fitted curve at half-maximal effect.

Structure (SMILES) | Potency | activity change, negative = inhibition
Cc1cc([N+](=O)[O-])cc([N+](=O)[O-])c1O | inactive | 
CCCCO[P+](=O)OCCCC | inactive | 
O=C(Cl)Oc1ccccc1 | inactive | 
Cc1cc([N+](=O)[O-])c(O)c([N+](=O)[O-])c1 | inactive | 
CCOC(=O)Cl | inactive | 
CN(C(=O)Cc1ccc(Cl)c(Cl)c1)[C@H]1CC[C@@]2(CCCO2)C[C@@H]1N1CCCC1 | inactive | 
CCOP(=S)(CC)Sc1ccccc1 (stereo not drawn) | inactive | 
CN(C(=O)Cc1cccc2occc12)[C@H]1CC[C@@]2(CCCO2)C[C@@H]1N1CCCC1 | inactive | 
O=[N+]([O-])c1ccc([N+](=O)[O-])cc1 | inactive | 
ClP(Cl)c1ccccc1 | inactive | 
CCCCC(CC)CO[P+](=O)OCC(CC)CCCC (stereo not drawn) | inactive | 
O=P(Cl)(Oc1ccccc1)Oc1ccccc1 | inactive | 
CCNC(C)Cc1ccc2c(c1)OCO2 (stereo not drawn) | inactive | 
O=P(Cl)(Cl)c1ccccc1 | inactive | 
COP(=S)(Cl)OC | inactive | 
COC(=O)Cl | inactive | 
CCCCOP(OCCCC)OCCCC | active: 35.6 µM | 
O=[p+]1oc2ccccc2c2ccccc21 (stereo not drawn) | inactive | 
CCC(C)(OOC(C)(C)C)OOC(C)(C)C |  | inactive: -1.94% [at 23.8 µM]
CCCCCCCCCCCCCC[P+](CCCCCC)(CCCCCC)CCCCCC | inactive | 
O=[As]c1ccccc1 (stereo not drawn) | inactive | 
CN(C(=O)Cc1ccccc1)[C@H]1CC[C@@]2(CCCO2)C[C@@H]1N1CCCC1 | inactive | 
O=[P+](Oc1ccccc1)Oc1ccccc1 | inactive | 
